We go through one compound from patent publication US9598414B2, “Substituted benzo[5,6]azepino[3,2,1-hi]pyrido[4,3-b]indoles and substituted benzo[6,7][1,4]oxazepino[2,3,4-hi]pyrido[4,3-b]indoles for treating CNS disorders” (Daya Drug Discoveries, Inc., priority 2013, dated 2017).

By UniProt entry, the sequences of proteins in these tests, tags left out.
UniProt Q99720, whole entry: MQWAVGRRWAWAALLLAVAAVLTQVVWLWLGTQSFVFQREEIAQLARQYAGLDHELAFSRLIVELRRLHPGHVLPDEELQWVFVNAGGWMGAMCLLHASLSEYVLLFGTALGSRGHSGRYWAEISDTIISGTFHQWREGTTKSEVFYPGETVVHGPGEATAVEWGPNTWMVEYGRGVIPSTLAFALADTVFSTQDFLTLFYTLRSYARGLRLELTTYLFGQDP

Structures are written as SMILES.

This test has as its target Sigma σ1 (Homo sapiens, UniProt Q99720). As to the kind of experiment: Receptor binding, σ1.

As to `CN1CCc2c(c3cccc4c3n2-c2ccccc2CC4)C1` [Compound 6a, reference compound], the Ki (commonly a dissociation constant, usually derived from enzyme kinetics or from competition with a known ligand) stood at 6.14 µM.
